Tests used:
[1] = molecular target: T1, glucose-dependent insulinotropic polypeptide receptor (GIPR) (Homo sapiens, UniProt P48546); test: GeneBLAzer GIPR-CRE-bla HEK293T cell-based reporter assay; settings: read-out: EC50 of activation of GIPR; 460/530 ratio; 5 hours incubation; purified proteins
T1 construct: host or cells: HEK293T (GeneBLAzer GIPR-CRE-bla)
T1 sequence (P48546 22-466): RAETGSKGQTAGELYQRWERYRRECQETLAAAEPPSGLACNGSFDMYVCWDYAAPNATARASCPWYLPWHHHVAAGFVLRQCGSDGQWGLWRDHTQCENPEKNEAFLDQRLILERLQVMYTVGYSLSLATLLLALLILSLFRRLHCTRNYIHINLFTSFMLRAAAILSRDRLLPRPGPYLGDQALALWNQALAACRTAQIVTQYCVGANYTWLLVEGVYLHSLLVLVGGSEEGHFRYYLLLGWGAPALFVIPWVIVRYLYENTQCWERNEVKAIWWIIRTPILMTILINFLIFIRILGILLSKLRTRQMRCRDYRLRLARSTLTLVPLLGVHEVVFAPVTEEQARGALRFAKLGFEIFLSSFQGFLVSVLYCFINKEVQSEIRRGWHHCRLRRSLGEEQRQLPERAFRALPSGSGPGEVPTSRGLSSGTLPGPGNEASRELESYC
Description: This assay is diagrammatically represented in FIG. 3A.
Briefly, GeneBLAzer® GIPR-CRE-bla HEK293T cells were added to wells of black-wall assay plates. […] To each well, LiverBLAzer-FRET B/G substrate mixture was added. The plate was covered with plate sealer and incubated at room temperature for 2 hours in the dark. Fluorescence emission was measured on SpectraMax plate reader at 460 nm and 530 nm with excitation set to 409 nm. After subtraction of background, average value at 460 nm (blue color) was divided by average value at 530 nm (green color) to obtain the 460/530 ratio.

HFD-fed mice = test: longer-term obesity model in HFD-fed mice; settings: repeated tail vein dosing
Description: Mice (Male C57BL/6) were of approximately 13 weeks of age were housed 4 mice per cage. Following 2 weeks of acclimation, mice were introduced to 60% kcal HFD (Research Diets D12492). Cages were changed once, then changed once a week. Weekly body weights and non-fasted blood glucose were collected.
Mice were injected by tail vein with vehicle or the drugs on Day 0, Day 4, Day 7, Day 10, Day 14, and Day 18. Body weights were measured every 2 days. Change in body weight was calculated and plotted.
Cumulative food intake was measured between day 0 and 3, between day 4 and 7, between day 7 and day 11, and between day 11 and day 14, and represented as average daily food intake. For food consumption, remaining food was weighed on days 3, 8, and 15, and subtracted from the starting weight. This value was then normalized to the number of mice in the cage, and the number of days the mice had access to the food prior to weighing.
Blood glucose levels were measured on Days 0, 1, 10 and 15 and plotted.
On day 19 during terminal necropsy, liver and subcutaneous white adipose tissue were recovered weighed from treated animals.
To further analyze the changes in liver, histopathological analysis was conducted. Briefly, the liver tissue was stained with hematoxylin and eosin (H&E) and evaluated using standard techniques.

tirzepatide [reference compound]
EC50 [1]: 5.18 pM | tolerability / clinical observations (HFD-fed mice): moribund, lethargic, scruffy, and consumed significantly less food and water immediately post dose

Reference: patent publication US12145975B2, “Fusion proteins for the treatment of cardiometabolic diseases” (Shattuck Labs, Inc., priority 2022, dated 2024)
